# Publication PMC5909415 (ACS nano, 2015)
# Tested on: cancer and normal cells
# Assay: Cell viability assay
# Assay type: cell-based, human
# Conditions: 72 h
substance,measurement,value
"HSA: human serum albumin, carrier protein of the formulation",effect on viability of cancer and normal cells,not caused by HSA
